Laboratory results published in ChEMBL document CHEMBL1144888, “Synthesis, structure-activity relationship, and evaluation of SR141716 analogues: development of central cannabinoid receptor ligands with lower lipophilicity” (J Med Chem, 2003).

The chains behind the UniProt entries cited, without tags or fusion partners.
UniProt P20272, whole entry: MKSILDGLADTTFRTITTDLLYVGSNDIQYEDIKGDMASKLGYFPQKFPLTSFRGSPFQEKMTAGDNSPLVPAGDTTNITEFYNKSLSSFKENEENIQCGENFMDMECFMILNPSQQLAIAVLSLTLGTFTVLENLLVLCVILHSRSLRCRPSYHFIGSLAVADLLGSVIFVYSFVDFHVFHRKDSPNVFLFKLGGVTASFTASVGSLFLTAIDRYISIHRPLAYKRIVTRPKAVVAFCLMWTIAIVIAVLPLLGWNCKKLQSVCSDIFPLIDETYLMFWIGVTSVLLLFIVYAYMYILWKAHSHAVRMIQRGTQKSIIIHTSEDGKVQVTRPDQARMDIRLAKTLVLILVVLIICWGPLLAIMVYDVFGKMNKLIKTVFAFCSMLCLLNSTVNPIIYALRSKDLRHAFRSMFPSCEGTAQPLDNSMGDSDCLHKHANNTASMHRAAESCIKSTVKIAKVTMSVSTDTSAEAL

Target: Cannabinoid receptor 1 (Rattus norvegicus, UniProt P20272)

Ki: 4.1 nM
Structure (SMILES): COc1ccc(-c2c(C)c(C(=O)NN3CCCCC3)nn2-c2ccc(Cl)cc2Cl)cc1
